Source: article PMC12305496, “Bilosomal Encapsulation of Binuclear Phosphino Ru(II)–Cu(II) Compounds Enhances Their Selectivity and Activity toward Lung and Prostate Cancers” (Journal of Medicinal Chemistry, 2025)

Test system: zebrafish larvae
Experiment: In vivo toxicity in zebrafish larvae
Conditions: larvae treated at 3 dpf, 48 h of treatment, viability at 5 dpf

Substance | LC50 [µM]
[Ru(η^6-p-cymene)Cl2Pcfx-Cu(phen)](NO3) [RuPCpCu] | 33.3
[Ru(η^6-p-cymene)Cl2Plfx-Cu(phen)](NO3) [RuPLmCu] | 34
[Ru(η^6-p-cymene)Cl2Pnfx-Cu(phen)](NO3) [RuPNrCu] | 50.4
[Ru(η^6-p-cymene)Cl2Psfx-Cu(phen)] [RuPSfCu] | 31.9
